Measured values: paper PMC8752738, “A propolis-derived small molecule ameliorates metabolic syndrome in obese mice by targeting the CREB/CRTC2 transcriptional complex” (Nature Communications, 2022)
Values joined by “and” are separate entries in the source; they are usually repeats but may differ in a detail not shown here. Equal values may be shown once.

Sequences of proteins named here, by UniProt entry; tags and fusion partners are left off. A change or cut given only in a name is not applied to a line headed by its entry.
UniProt P16220: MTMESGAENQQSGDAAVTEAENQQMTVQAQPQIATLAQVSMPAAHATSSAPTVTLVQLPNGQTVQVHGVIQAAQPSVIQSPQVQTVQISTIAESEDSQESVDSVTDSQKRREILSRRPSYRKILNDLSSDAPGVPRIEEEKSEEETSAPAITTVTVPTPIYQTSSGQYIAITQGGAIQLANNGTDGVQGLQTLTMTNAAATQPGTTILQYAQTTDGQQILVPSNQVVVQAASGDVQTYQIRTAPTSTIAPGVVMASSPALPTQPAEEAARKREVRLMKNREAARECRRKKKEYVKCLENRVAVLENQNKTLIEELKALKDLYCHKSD

Target: CREB-CRTC2 interaction (Homo sapiens, UniProt P16220)
Experiment: CREB–CRTC2 mammalian two-hybrid assay (GAL4-Luc reporter)
Type: cell-based
Conditions: Figure 1f, DMSO control about 100

baccharin
Relative Gal4-LUC activity, single replicates: 57.9128 and 74.6069 and 107.584
